## Apparent affinities of Ab-14 variants for a coronavirus HR2 peptide

The measurements come from Engelhart et al. 2022 (doi:10.1038/s41597-022-01779-4) through the FLAb antibody collection.

Binding partner: SARS-CoV-2 spike HR2 peptide, sequence PDVDLGDISGINAS.

Parent: Ab-14, a human scFv built as VH, a (GGGGS)3 linker, VL. Only the CDRs of the heavy chain vary.
VH: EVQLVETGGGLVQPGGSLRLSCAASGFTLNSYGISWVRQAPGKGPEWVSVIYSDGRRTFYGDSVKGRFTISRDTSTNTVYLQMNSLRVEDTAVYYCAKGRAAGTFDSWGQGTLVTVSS
VL: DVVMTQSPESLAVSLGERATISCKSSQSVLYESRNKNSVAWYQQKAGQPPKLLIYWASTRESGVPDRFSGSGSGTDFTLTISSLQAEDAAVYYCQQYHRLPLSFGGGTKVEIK

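The library (AAYL49) carries one to three amino acid substitutions per variant, with no insertions or deletions. The scFvs were displayed on barcoded MATa yeast, the peptide on MATalpha yeast. After mating in shaken culture at 30 °C for 16 h, diploids were selected and their barcode pairs sequenced. Each replicate has its own calibration line, from reference interactions of the BCL2 family. Each pool was mated in three replicate cultures.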

Changes read parent residue, position, new residue, counted from the first residue of the VH shown.
The read-out is the apparent dissociation constant on a log10 scale (nM): the lower, the stronger.
Averages over replicates are reported, and they cover detected replicates only.
An entry "n.d." has no value in the source: the pair was not observed among the diploids in that replicate. This suggests poor binding but is not conclusive.
For reference, the parent read 0.65 as the reference entry and 4.11 (one replicate of three) as a member of this library.
As a blank, each scFv also met three strains without target: over library AAYL49, 15% of these pairings were detected, typically at 4.06 and seldom below 2.83. For each scFv, signals with the empty controls are counted beside the result, with their mean in brackets.

changes,"log10 Kd, replicates","log10 Kd (nM), mean",empty controls
I34Y+V50I+A101L,n.d. 4.47 n.d.,4.47,1/9 (3.58)
F27C+Y32H+A101M,n.d. n.d. n.d.,n.d.,0/9
R56E+R57G+S63L,n.d. n.d. n.d.,n.d.,0/9
G55V+F105Y,n.d. n.d. n.d.,n.d.,0/9
I34E+R57P+D106Y,n.d. 3.75 n.d.,3.75,1/9 (5.02)
S35F+I51P+R56S,n.d. n.d. n.d.,n.d.,0/9
G33A+R56T,n.d. n.d. 4.81,4.81,4/9 (3.33)
S31L+D54G+D106C,n.d. n.d. 4.85,4.85,2/9 (3.57)
S63H+D106F,0.84 0.98 0.60,0.81,2/9 (4.19)
N30I+R57W+F105Q,n.d. 4.41 n.d.,4.41,1/9 (4.50)
S53Q+D62I+T104C,n.d. n.d. n.d.,n.d.,0/9
T28P+L29I+R57P,n.d. n.d. n.d.,n.d.,0/9
Y32A+A101E+A102W,n.d. n.d. n.d.,n.d.,4/9 (3.83)
F105A,1.88 1.96 2.70,2.18,1/9 (3.35)
T58F+S63K+K65N,4.03 3.05 n.d.,3.54,3/9 (3.33)
L29P+S31D+A101V,0.41 0.50 0.43,0.44,1/9 (3.43)
D54T+Y60P+S107M,n.d. n.d. n.d.,n.d.,1/9 (2.61)
G26F+L29W+F105I,n.d. n.d. n.d.,n.d.,0/9
F27T+A101E+S107T,0.00 0.35 0.16,0.17,2/9 (4.36)
D54L+V64F+T104P,n.d. n.d. n.d.,n.d.,0/9
D54A+R56I+R100E,n.d. n.d. n.d.,n.d.,2/9 (4.50)
R57A+A101K+G103T,n.d. 4.15 n.d.,4.15,3/9 (4.14)
N30E+D106P,0.36 0.60 0.54,0.50,1/9 (5.64)
R56V+Y60M+F105W,n.d. 3.33 n.d.,3.33,1/9 (4.11)
N30Y+G61T,0.79 0.72 0.64,0.72,0/9
G26L+A101Q+G103K,3.80 2.63 3.20,3.21,4/9 (4.69)
N30I+V50R+G103W,n.d. 4.33 n.d.,4.33,0/9
V50I+D62H,n.d. 2.70 n.d.,2.70,0/9
T28L+K65Y+F105M,4.83 3.63 4.18,4.21,4/9 (4.85)
N30S+S53K+K65M,n.d. n.d. n.d.,n.d.,0/9
Y52V+Y60G+F105V,n.d. n.d. n.d.,n.d.,1/9 (4.94)
S35E+A102M,n.d. n.d. n.d.,n.d.,1/9 (3.13)
F27Y+R56V+S63Q,2.30 2.61 3.33,2.75,2/9 (4.26)
S35I+R100S+G103S,n.d. n.d. n.d.,n.d.,0/9
G26K+S35M+S107L,n.d. n.d. n.d.,n.d.,0/9
D54R+R57W+T58W,n.d. n.d. n.d.,n.d.,0/9
G33Q+S35N+D54H,n.d. n.d. n.d.,n.d.,1/9 (3.01)

A selection of 2 entries from above:

changes,"log10 Kd, replicates","log10 Kd (nM), mean",empty controls
F27Y+R56V+S63Q,2.30 2.61 3.33,2.75,2/9 (4.26)
G26L+A101Q+G103K,3.80 2.63 3.20,3.21,4/9 (4.69)